Measured values taken from patent US20090172831A1, “Methods for the production of plants resistant to HPPD herbicides” (Syngenta Limited, priority 2000, published 2009).

How the values were obtained:
maize HPPD = experiment: Inhibition of part purified HPPD after pre-incubation with inhibitor; assay type: biochemical
Protocol: Qualitative measurements of the differences in Kd values in respect of different HPPD inhibitors are obtained by pre-incubating enzyme with inhibitor and, then, subsequently, measuring the % inhibition. For example HPPD is isolated from maize seedlings, part purified and assayed by similar methods to those described by Schulz et al 1993 (FEBS LETS. 318, 162-166) and by Secor (1994) in Plant Physiol. 106, 1429-1433. Assays are run for 30 minutes and started with addition of radiolabelled hydroxyphenylpyruvate (final concentration ˜0.1-0.2 mM) following a 20-30 min period over which inhibitor is pre-incubated with the part-purified enzyme.
The following levels of inhibition (relative to controls) are observed with the following doses of herbicide versus maize HPPD

Arabidopsis HPPD = target: T1, Arabidopsis HPPD (Arabidopsis thaliana, UniProt P93836); experiment: Rate of binding (kon) by radiolabelled inhibitor and separation of bound from free
T1 construct: made in house; host or cells: E. coli BL21 (DE3) codon+ RP
T1 sequence (P93836 1-445): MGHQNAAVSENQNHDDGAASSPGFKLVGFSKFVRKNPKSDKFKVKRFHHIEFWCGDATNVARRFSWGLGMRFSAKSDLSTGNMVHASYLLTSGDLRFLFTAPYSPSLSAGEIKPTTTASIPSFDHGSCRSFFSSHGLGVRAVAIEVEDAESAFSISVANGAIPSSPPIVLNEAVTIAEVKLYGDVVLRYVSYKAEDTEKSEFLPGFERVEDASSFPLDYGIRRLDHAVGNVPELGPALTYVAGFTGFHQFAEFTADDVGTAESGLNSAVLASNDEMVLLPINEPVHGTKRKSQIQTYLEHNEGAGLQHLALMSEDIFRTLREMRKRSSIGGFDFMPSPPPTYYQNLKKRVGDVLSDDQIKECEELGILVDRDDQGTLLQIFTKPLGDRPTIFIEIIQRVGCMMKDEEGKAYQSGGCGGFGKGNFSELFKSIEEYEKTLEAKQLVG
Excerpt: Alternatively estimates of kon values can be determined more directly by mixing HPPD with radio or otherwise labelled herbicide inhibitor and monitoring the progress of the binding reaction, optionally by rapidly isolating the enzyme inhibitor complex and/or by any one of a number of methods (for example fluorimetry, EPR, NMR, radiodetection etc). For example, the reaction with HPPD may be started by addition of radiolabelled herbicide, allowed to proceed for a series of different times and rapidly quenched by addition and mixing with a large excess of unlabelled inhibitor. In this case the extent of binding at different times may, for example, be monitored by using ultrafiltration, binding to filters or gel filtration to separate radiolabel-bound to HPPD from unbound label which fractions can then each be quantitated by scintillation counting.
When measuring kon via such measurements of physical binding it is important to note that the binding of most compounds versus some HPPD enzymes appears biphasic with half the sites binding quickly and then the remaining binding then occurring relatively very slowly. In such cases, it is the rapid initial binding phase, usually corresponding to rate constants in the range 0.1-4×10^5 M^−1s^−1, which provides the relevant rate constant. This corresponds to the value obtained from using enzyme assay-based methods since although only half the sites are initially bound, on the same time-scale essentially all of the HPPD catalytic activity is inhibited. It will be appreciated that within the scope of the current invention many more or less rigorous methods of making the desired kinetic comparisons, are possible which may not involve explicit determination of off rates and on rates but, based upon the same underlying principles, achieve the same selection result.
The measurements of koff are based on physical rather than assay-based measurements. Similarly, kon rates can also be measured by a direct physical method, in this case the use of radiolabelled inhibitor and physical separation of protein bound from free inhibitor. […] The rates of binding determined on the basis of measurement of the amount of radiolabelled inhibitor bound after various times of reaction are found to correlate very well with measurements based upon assay-based measurements of the rate of decline of enzyme activity.
An illustrative example of an experiment to measure the on rate of mesotrione binding to Arabidopsis HPPD follows. […] After stopping samples are quickly separated into protein-bound and protein-free fractions by rapid Gel filtration down a NAP5 Pharmacia column equilibrated in 50 mM BTP at pH 7 containing 0.1 M KCl and the radioactivity in the two fractions measured by liquid scintillation counting. […]

[1] = test system: untransformed tobacco plants variety Samsun; experiment: Glasshouse spray test, visible damage; assay type: in vivo; conditions: spray 0.0 to 2000 g/ha, assessed ~1 and 3 weeks after treatment
Protocol: (§1) Plants are 1) untransformed tobacco plants variety Samsun expressing the endogenous tobacco (control) HPPD gene, 2) tobacco plants transformed to express Pseudomonas HPPD according to the examples herein and 3) tobacco plants transformed to express Wheat HPPD also according to the examples herein.
(§2) Large numbers of plants are grown from seed in small pots in the glasshouse to the 5-7 leaf seedling stage and sprayed with a range of doses, suitably from 0.0 to 2000 g/ha, of different HPPD-inhibitor herbicides selected from compounds of Formula 1, 2, 3 and 4. Treatments are suitably Formulated in, for example, deionised water+0.5% Turbocharge™ surfactant or, alternatively, 50% acetone/water and applied at […] to a dozen or more replicates of each line and at each spray rate (where the plants were T1 plants (selfed progeny of primary transformants) and still segregating at normally 1:2:1) or, where, homozygous, 3-6 plants. The extent of visible damage in terms of bleaching of meristems and leaves, eventual necrosis and stunting of growth relative to unsprayed controls is assessed at ˜1 and 3 weeks after treatment. Data from susceptible segregants are excluded from the analysis. In summary, results obtained are as follows.

[2] = test system: tobacco plants transformed to express wheat HPPD; experiment: Glasshouse spray test, visible damage; assay type: in vivo
Protocol: as §1, §2

[3] = test system: tobacco plants transformed to express wheat HPPD; experiment: Tolerance of tobacco transformed with wheat HPPD to herbicides; conditions: in vivo

Structure (SMILES) | fold less active against the maize enzyme than structure IV (maize HPPD) [fold] | inhibition (relative to controls) (maize HPPD; 1 nM) [%] | inhibition (relative to controls) (maize HPPD; 10 nM) [%] | inhibition (relative to controls) (maize HPPD; 100 nM) [%] | inhibition (relative to controls) (maize HPPD; 1000 nM) [%] | kon (Arabidopsis HPPD; absence of glycerol) [M⁻¹ s⁻¹] | kon (Arabidopsis HPPD; in the presence of glycerol) [M⁻¹ s⁻¹] | kon (Arabidopsis HPPD; pH 7, 25 C, pH 7.0, in the presence of glycerol, initial rapid phase) [M⁻¹ s⁻¹] | kon (Arabidopsis HPPD; without 25% v/v glycerol) [M⁻¹ s⁻¹] | fold more susceptible of the herbicide than of mesotrione [1] [fold] | fold less susceptible of mesotrione than of the named herbicide [2] [fold] | resistance of the transgenic plants compared with that to mesotrione [3]
CS(=O)(=O)c1ccc(C(=O)C2C(=O)CCCC2=O)c([N+](=O)[O-])c1 [Structure I, 2-(Nitro-4-methanesulphonylbenzoyl)-cyclohexane-1,3-dione] | ~10 | <17 | 44 | 51 | >75 | 190000 | 110000 | 125000 | 1.9e+06 |  |  | 
Cc1cc(C#N)ccc1C(=O)C1C(=O)C(C)(C)C(=O)C(C)(C)C1=O [Structure VI, 2-[2-methyl-4-cyanobenzoyl]-4,4,6,6-tetramethylcyclohexane-1,3,5-trione] |  |  |  |  |  |  |  |  |  | < 4 | > 16 | substantially less resistant
